# Values quoted from earlier work, collected in publication PMC3568227.
# Protein sequences, listed by entry. Tags and fused reporters are not part of them. Lines headed by an entry give the natural chain unless they say otherwise; changes in a name come on top.
# UniProt Q13421: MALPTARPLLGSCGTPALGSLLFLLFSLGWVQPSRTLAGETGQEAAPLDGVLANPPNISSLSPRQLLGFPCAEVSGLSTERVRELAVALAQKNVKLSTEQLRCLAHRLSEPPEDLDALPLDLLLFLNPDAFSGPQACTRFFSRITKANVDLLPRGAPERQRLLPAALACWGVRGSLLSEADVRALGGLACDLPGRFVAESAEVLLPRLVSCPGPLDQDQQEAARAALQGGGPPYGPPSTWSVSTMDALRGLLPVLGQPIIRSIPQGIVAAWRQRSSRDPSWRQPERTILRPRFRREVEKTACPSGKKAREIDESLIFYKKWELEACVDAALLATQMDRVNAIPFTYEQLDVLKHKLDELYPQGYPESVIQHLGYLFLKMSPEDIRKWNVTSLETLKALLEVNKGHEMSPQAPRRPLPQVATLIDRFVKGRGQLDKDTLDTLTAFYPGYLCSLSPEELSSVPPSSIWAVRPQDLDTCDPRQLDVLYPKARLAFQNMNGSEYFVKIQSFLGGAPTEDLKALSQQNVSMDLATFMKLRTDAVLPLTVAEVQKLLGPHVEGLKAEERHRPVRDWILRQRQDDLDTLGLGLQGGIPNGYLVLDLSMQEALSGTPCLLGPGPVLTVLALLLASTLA
# Target: MUC16 (Homo sapiens) (UniProt Q8WXI7)
substance,measurement,value
mesothelin (from UniProt Q13421),Kd,5 nM
